# Source: PubChem (National Center for Advancing Translational Sciences (NCATS))
# Rows were chosen to be rich in hits. Some 13% of all compounds tested hit in one or more screens of this group.
# miR-21 reporter = raises the signal of a miR-21 reporter | HeLa miR-21 FLuc reporter, luciferase, 48 h | Potency, µM (doses to about 38.3 µM), without a hit: at the top dose reporter change, positive = more light | 340,000 tested, under 10 active | AID 2288; active = well fitted rising curve with a large enough effect; inconclusive = small, poorly fitted or top-dose-only effect; inactive = no such curve, though single readings can be large or run the other way;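 note: % of control where 0% means no effect; miR-21 action dims this reporter so a rising signal means less miR-21 action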
#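 Luminescence from a firefly luciferase reporter carrying a miR-21 binding site downstream, stably expressed under a CMV promoter in HeLa cells that make miR-21 endogenously, reports miRNA modulation after 48 h compound exposure up to approximately 40uM final.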
# KDM4E inh = blocks human JMJD2E demethylase activity. JMJD2E catalytic domain, FDH-coupled NADH fluorescence (FDH is formaldehyde dehydrogenase). Potency, µM (series often up to 57.1 µM), without a hit: at the top dose activity change, negative = inhibition, actives largely listed as inhibitors. 1.6% of 230,000 active. AID 2147; active = well fitted inhibition curve with a large enough effect, not every such curve was filed as active; inconclusive = small, poorly fitted or top-dose-only effect, or another doubt; inactive = no such curve, though single readings can be large or run the other way;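 note: potency is the fitted concentration of half-maximal effect; 0% = wells with enzyme and -100% = buffer wells without enzyme; nearly all actives have a fitted effect of over 50% in size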
# G9a block = blocks human histone lysine methyltransferase G9a; Q96KQ7; Potency, µM (series often up to 102 µM), for the others: at the highest dose activity, negative = inhibition, hits mostly inhibitors; G9a H3K9 monomethylation, AlphaScreen, 2 h; 8.8% of 350,000 active; AID 504332; note: potency is the fitted concentration of half-maximal effect; % is set by controls: 0 for no effect and ±100 for the full control effect; nearly all actives have a fitted effect of over 75% in size
#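 Quantitative HTS format: methyltransferase activity on a biotin-tagged H3K9 peptide is measured by AlphaScreen, using a rabbit anti-monomethyl-H3K9 antibody with streptavidin donor and anti-IgG acceptor beads. Final levels are 20 nM enzyme, 500 nM peptide, 20 uM SAM; 2 h RT.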
# Sfp inh = inhibitors of Bacillus subtilis Sfp phosphopantetheinyl transferase; Q9F4F7; Biochemical Sfp PPTase activity, qHTS; Potency, µM, inactives show max response, negative = inhibition, actives largely listed as inhibitors; hit rate 3.5% among 310,000; AID 1490; active means well fitted inhibition curve with a large enough effect; inconclusive means small, poorly fitted or top-dose-only effect, or another doubt; inactive means no such curve, though single readings can be large or run the other way;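 further: the enzyme is Sfp with the accession as filed and its product quenches rhodamine fluorescence; potency means the concentration at half of the fitted maximal effect; 0% = enzyme reaction without inhibitor and -100% = no enzyme wells; top concentration of the series not given in the record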
#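 Fluorescence-quenching assay with 15 nM Sfp, 5 uM rhodamine-CoA and 12.5 uM BHQ-2-labelled ybbR peptide in pH 7.6 Hepes/MgCl2 buffer. Enzyme was pre-incubated with compound for 15 min at room temperature. Rate was taken from the 30-min fluorescence change (525/598 nm).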
# Lamin A splicing = LMNA splicing modulation | HeLa LMNA splicing GFP/RFP minigene ratio, 48 h | Potency, µM (series often up to 46.1 µM), for the others: at the top dose ratio change, negative = inhibition, actives largely listed as inhibitors | 0.01% of 200,000 active; active = well fitted inhibition curve with a large enough effect in the signal ratio, with a control signal flat, not every such curve was filed as active; inconclusive = small, poorly fitted or top-dose-only effect, or effect the other way, or a change in a side signal; the % refers to the signal ratio; note: potency is the fitted concentration of half-maximal effect; % is set by controls: 0 for no effect and ±100 for the full control effect
#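 Read-out is the ratio of GFP to DsRed2 object intensity, acquired by 488 nm laser-scanning cytometry on HeLa lamin A-EGFP minigene reporter cells. Compound incubation 48 hrs at 37 °C in Opti-MEM with 2% FBS; DMSO 0.5% final.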
# ALDH1A1 block = blocks purified human ALDH1A1 activity | P00352 | Purified ALDH1A1, NADH fluorescence, propionaldehyde substrate | Potency, µM (series often up to 75.3 µM), for the others: at the highest dose activity, negative = inhibition, most hits filed as inhibitors | 7.3% of 220,000 active; active = well fitted inhibition curve with a large enough effect, not every such curve was filed as active; inconclusive = small, poorly fitted or top-dose-only effect, or another doubt; inactive = no such curve, though single readings can be large or run the other way;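 note: potency is the fitted concentration of half-maximal effect; plate controls were no enzyme wells and a reference inhibitor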
# Sfp PPTase conf = Sfp phosphopantetheinyl transferase inhibition, confirmation. Sfp PPTase enzymatic assay, qHTS titration. 79% of 380 active. Potency, µM (top dose mostly 114 µM), for inactives: at the highest dose activity change, negative = inhibition, usual class: inhibitors. shares compounds with Sfp inh;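 note: potency is the fitted concentration of half-maximal effect; plate controls were uninhibited Sfp reaction for no effect and no enzyme control for full effect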
# Sfp gel assay = Blocks Sfp PPTase activity, gel read-out; AID 2707; 20% of 210 active; Potency, µM, actives largely listed as inhibitors; purified Sfp, gel-based phosphopantetheinylation read-out; shares compounds with Sfp inh;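 active = potency below 100 µM; inconclusive = dose-dependent response but potency above 100 µM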;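 note: band intensities scaled against SCH202676 control wells before curve fitting; potency is an IC50 for inhibitors of Sfp transfer activity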
# Numbers without * were called inactive; i = inactive; ? = inconclusive; . = not tested or not shown; ! = not active in a repeat; [ ] = another dose, or the depositor's remark. Unless noted, calls come from the whole dose curve; as a rule, active = well fitted curve in the direction sought with a large enough effect; inconclusive = small, poorly fitted or top-dose-only effect, or another doubt; inactive = no such curve, though single readings can be large; an effect the other way counts as inactive or inconclusive.
no.	smiles	KDM4E inh	Sfp inh	ALDH1A1 block	G9a block
1	CC(=O)O[C@@]12CO[C@@H]1C[C@H](O)[C@@]1(C)C(=O)[C@H](O)C3=C(C)[C@@H](OC(=O)C(O)[C@@H](NC(=O)OC(C)(C)C)c4ccccc4)C[C@@](O)([C@@H](OC(=O)c4ccccc4)[C@H]21)C3(C)C (stereo partly drawn)	.	6.3µM*	.	0%[12.7 µM]
2	Cc1cc(O)c(C2=Nc3ccccc3SC(c3ccc(Cl)cc3)C2)c(=O)o1 (stereo not drawn)	-3%	14µM*	3%	?
3	CCOC(=O)c1c(NS(=O)(=O)c2cccc(OC)c2)sc2c1CCC2	?	2.8µM*	10µM*	?
4	Cc1cc(NC(=O)c2cc(-c3ccccn3)nc3ccc(Br)cc23)no1	.	-24%	.	.
5	Cc1ccc(-c2cc(C(=O)O)c3cc(Br)ccc3n2)o1	?	3.2µM*	?	1.3µM*
6	CCOc1ccc(C(=O)CC(NCc2cccs2)C(=O)O)cc1 (stereo not drawn)	-9%	11µM*	?	25µM*
7	Cc1ccc(C(=O)NCC(c2ccc3c(c2)OCO3)N2CCOCC2)cc1 (stereo not drawn)	.	.	.	3%[59 µM]
8	COc1ccc(CCNC(=O)[C@H](C)N2C(=O)N3CCc4c([nH]c5ccccc45)[C@@]3(C)C2=O)cc1	.	17%	.	?
9	CC(=O)c1ccc2c(c1)N(CCCN1CCC(CCO)CC1)c1ccccc1S2	0%[25.5 µM]	10%	5%[20.9 µM]	-10%[59 µM]
10	CN1CCCC[C@@H]1CCN1c2ccccc2Sc2ccc(S(C)=O)cc21 (stereo partly drawn)	-9%[25.5 µM]	20µM*!	-5%[20.9 µM]	7.9µM*!
11	Cn1nnc(NC(=S)NC(=O)c2ccco2)n1	1%	6.3µM*	3.5µM*	7.9µM*
12	N[C@@H](Cc1ccccc1)c1nnc2sc(SCc3ccccc3)nn12	-7%	45µM*	28µM*	7.1µM*

no.	Lamin A splicing	miR-21 reporter	Sfp PPTase conf	Sfp gel assay
1	.	.	15µM*	i
2	?	-70%	53µM*	?
3	-14%	3%	26µM*	.
4	.	3%	.	.
5	-4%	2%	3.7µM*	i
6	?	-1%	37µM*	.
7	-4%[46 µM]	2%	.	.
8	.	23%	.	.
9	?	.	.	.
10	-2%	.	42µM*	19µM*
11	-3%	-13%	?	i
12	-2%	-8%	66µM*	.

# (listing goes on)
no.	smiles	KDM4E inh	Sfp inh	ALDH1A1 block	G9a block
13	COc1ccc(S(=O)(=O)c2cn(C)c3cc(N4CCCC4)c(F)cc3c2=O)cc1	.	.	.	0%[59 µM]
14	O[C@@H]1CCN2Cc3ccccc3N=C12	.	2.8µM*	.	.
15	Cc1ccc(S(=O)(=O)Nc2c(C)[nH]c(=O)[nH]c2=O)cc1C	6%	23%	0%	25%[59 µM]
16	c1cncc(-c2nc(-c3ccco3)cs2)c1	-29%	7.9µM*	1.3µM*	?
17	Cc1cc(S(=O)(=O)N2CCOCC2)ccc1OCC(=O)NCc1ccccn1	.	15%	.	1%
18	O=C(CSc1ncnc2sc3c(c12)CCCCC3)NCc1ccco1	?	14µM*	8.9µM*	?
19	Cc1cc(C)c(OCC(=O)N(Cc2cccc(F)c2)Cc2ccco2)c(C)c1	.	.	.	88%[59 µM]
20	COC(=O)c1ccc(-c2nc(O)c(C)s2)cc1	?	14µM*	20µM*	7.1µM*
21	COC(=O)c1ccc(O)cc1	.	21%	-6%	21%
22	CCOC(=O)COc1ccc(F)cc1C(=O)c1ccn2nc(-c3ccc(Cl)cc3)cc2n1	.	.	.	0%[59 µM]
23	CC(C)(C)NS(=O)(=O)c1ccc(Oc2ncc(C(F)(F)F)cc2Cl)cc1	1%	25µM*	-5%	15%[59 µM]
24	CC(=O)Oc1ccc2c(c1OC(C)=O)OCC1(O)Cc3c(cc(OC(C)=O)c(OC(C)=O)c3OC(C)=O)C21 (stereo not drawn)	-25%	-1%	-4%	.

no.	Lamin A splicing	miR-21 reporter	Sfp PPTase conf	Sfp gel assay
13	2%[46 µM]	-10%	.	.
14	.	.	2.1µM*	0.69µM*
15	-1%	-5%	.	.
16	?	-11%	15µM*	.
17	.	-5%	.	.
18	-14%	18%	53µM*	.
19	.	?	.	.
20	?	-2%	47µM*	.
21	10%	-3%	.	.
22	.	0%	.	.
23	?	26%	53µM*	i
24	?	.	.	.

# Next part
no.	smiles	KDM4E inh	Sfp inh	ALDH1A1 block	G9a block
25	Oc1cc2c(cc1O)[C@H]1c3ccc(O)c(O)c3OC[C@@]1(O)C2	3.5µM*	4µM*	-12%	-147%[12.7 µM]
26	Cc1nn(-c2ccccc2)c2nc(-c3ccco3)cc(C(=O)O)c12	?	13µM*	?	20µM*
27	CCn1c(=O)cc(OCC(=O)N(C)c2cc(Cl)ccc2C)c2ccccc21	.	.	.	-19%[59 µM]
28	COc1ccc(OC)c(Nc2nc(=O)c3cccnc3s2)c1	-4%	2.8µM*	2µM*	0.56µM*
29	CN(C(=O)c1cccc(S(=O)(=O)N2CCCC2)c1)C1CCCCC1	.	.	.	12%[12.7 µM]
30	NNc1nncc2ccccc12	20µM*	5µM*!	11%	7.9µM*!
31	CCc1nnc(NC(=O)CCC(=O)N2CCC(Cc3ccccc3)CC2)s1	.	4%	.	43%

no.	Lamin A splicing	miR-21 reporter	Sfp PPTase conf	Sfp gel assay
25	.	.	8.3µM*	2.1µM*
26	-4%	-5%	21µM*	?
27	.	?	.	.
28	.	-5%	19µM*	.
29	.	.	.	.
30	?	.	?	74µM*
31	.	3%	.	.
